Laboratory results taken from PMC4580724 (Clinical Pharmacokinetics, 2015).

Type: in vivo, human
Details: substrate + enzalutamide 160 mg/day vs substrate + placebo-to-match; n = 14

| SMILES | AUC∞ geometric mean ratio test/reference (90 % CI) | C max geometric mean ratio test/reference (90 % CI) |
| --- | --- | --- |
| CC(=O)C[C@H](c1ccccc1)c1c(O)c2ccccc2oc1=O [R-warfarin] | 0.55 (0.51–0.58) | 0.99 (0.93–1.05) |
| CC(=O)C[C@@H](c1ccccc1)c1c(O)c2ccccc2oc1=O [S-warfarin] | 0.44 (0.41–0.48) | 0.93 (0.86–0.99) |
